Experimental findings from patent US20070275091A1, “Compositions And Methods For Improved Mucus Function” (priority 2004, published 2007) are described below.

The data set in a line: Viscoelasticity and spinnability of cystic fibrosis respiratory mucus with dextran. In kind it is physicochemical, human. The note with it: FIG. 2. As for the experimental part:
The magnetic microrheometer technique is used to measure the viscosity and elasticity of mucus (19). A 100 μm steel ball is positioned in a 5-10 mg sample of mucus, and the motion of this sphere under the influence of an electromagnet is used to determine the rheological properties of the mucus. The image of the steel ball is projected via a microscope onto a pair of photocells, whose output is amplified and transmitted to a digital storage oscilloscope. By plotting the displacement of the ball against the magnetic driving force, the viscoelastic properties of the mucus can be ascertained. Two derivative parameters—mucociliary clearability index (MCI) and cough clearability index (CCl)—are computed from in vitro relationships (King M. Role of mucus viscoelasticity in cough clearance. Biorheology 1987; 24: 589-597).
Low molecular weight dextran is a potential mucolytic treatment for cystic fibrosis lung disease. In pre-clinical testing, it promoted clearance by both mucociliary and airflow mechanisms, and the drug has passed a Phase 1 safety trial in normal subjects. A Phase 2 clinical trial of aerosolized low molecular weight dextran in cystic fibrosis patients has been completed, and further trials are planned. […]

HMW dextran [XL “D”]: the “elasticity relative to viscosity (spinnability relative to log G*)” value is listed as “tends to raise elasticity relative to viscosity”.
